Data: patent US7351711B2, “Tricyclic indanyls as integrin inhibitors” (Janssen Pharmaceutical, N.V., priority 2003, dated 2008)

Amino acid sequences for entries named in this document (tags omitted). Residues count along the entry.
UniProt P05106, 27-788 limits assumed: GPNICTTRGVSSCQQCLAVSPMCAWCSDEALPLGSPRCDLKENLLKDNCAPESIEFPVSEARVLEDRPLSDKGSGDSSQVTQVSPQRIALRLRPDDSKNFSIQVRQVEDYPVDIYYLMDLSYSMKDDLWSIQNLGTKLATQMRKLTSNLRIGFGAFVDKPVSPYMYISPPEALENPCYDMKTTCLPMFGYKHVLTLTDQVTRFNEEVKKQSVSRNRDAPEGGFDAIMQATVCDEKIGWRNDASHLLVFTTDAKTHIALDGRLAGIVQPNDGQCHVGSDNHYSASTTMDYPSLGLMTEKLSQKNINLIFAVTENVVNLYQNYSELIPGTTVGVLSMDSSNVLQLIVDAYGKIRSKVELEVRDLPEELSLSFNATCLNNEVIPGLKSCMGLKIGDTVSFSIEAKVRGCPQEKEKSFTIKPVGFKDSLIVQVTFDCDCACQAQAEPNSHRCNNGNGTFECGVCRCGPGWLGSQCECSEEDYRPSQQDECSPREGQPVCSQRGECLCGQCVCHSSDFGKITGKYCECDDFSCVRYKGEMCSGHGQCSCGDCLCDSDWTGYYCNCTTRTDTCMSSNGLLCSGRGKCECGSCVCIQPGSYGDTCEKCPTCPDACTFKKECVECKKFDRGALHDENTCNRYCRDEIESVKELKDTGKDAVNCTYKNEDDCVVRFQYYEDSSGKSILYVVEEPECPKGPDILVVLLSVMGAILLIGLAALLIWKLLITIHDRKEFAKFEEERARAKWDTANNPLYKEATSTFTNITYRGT
UniProt P06756, 31-889 limits assumed: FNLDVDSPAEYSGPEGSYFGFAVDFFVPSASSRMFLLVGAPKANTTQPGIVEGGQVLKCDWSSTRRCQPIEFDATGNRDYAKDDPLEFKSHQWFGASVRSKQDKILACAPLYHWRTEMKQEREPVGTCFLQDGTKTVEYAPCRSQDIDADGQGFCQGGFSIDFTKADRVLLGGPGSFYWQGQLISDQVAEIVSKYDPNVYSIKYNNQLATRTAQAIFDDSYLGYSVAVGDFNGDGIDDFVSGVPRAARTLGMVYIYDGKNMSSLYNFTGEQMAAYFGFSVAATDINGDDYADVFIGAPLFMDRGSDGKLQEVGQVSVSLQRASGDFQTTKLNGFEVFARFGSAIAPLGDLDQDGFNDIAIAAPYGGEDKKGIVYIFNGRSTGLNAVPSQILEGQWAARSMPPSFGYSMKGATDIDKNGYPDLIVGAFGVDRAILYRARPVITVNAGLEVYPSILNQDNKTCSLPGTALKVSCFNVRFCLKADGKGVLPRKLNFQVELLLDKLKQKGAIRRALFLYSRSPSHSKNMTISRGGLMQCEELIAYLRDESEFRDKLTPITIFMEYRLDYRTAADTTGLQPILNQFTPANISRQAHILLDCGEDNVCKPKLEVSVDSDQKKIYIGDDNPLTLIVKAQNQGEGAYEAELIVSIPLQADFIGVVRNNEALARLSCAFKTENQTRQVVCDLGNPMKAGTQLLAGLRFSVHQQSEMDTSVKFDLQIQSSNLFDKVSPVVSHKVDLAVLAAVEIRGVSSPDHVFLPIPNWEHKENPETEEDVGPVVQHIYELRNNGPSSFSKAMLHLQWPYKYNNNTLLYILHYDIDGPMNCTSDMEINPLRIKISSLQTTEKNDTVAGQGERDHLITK
UniProt P06756, 891-1048 partner limits assumed: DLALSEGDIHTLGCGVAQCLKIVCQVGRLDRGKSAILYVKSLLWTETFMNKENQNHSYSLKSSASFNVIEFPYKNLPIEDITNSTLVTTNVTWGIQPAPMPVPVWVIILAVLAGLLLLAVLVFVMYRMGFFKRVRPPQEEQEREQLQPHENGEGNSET

Biological target: Human αvβ3 (Homo sapiens, UniProt P05106+P06756)
Test: In vitro solid phase purified αvβ3 binding assay (vitronectin/αvβ3)
Details: read-out: Antagonist IC50 Activity αVβ3; inhibition of 2 nM vitronectin binding to immobilized αvβ3

IC50: 371 nM
Compound: O=C(O)CC1c2ccccc2C2CN(C(=O)Cc3cccc(NC4=NCC(O)CN4)c3)CCC12 (racemic)
